Data as given in PubChem BioAssay AID778 (Sanford-Burnham Center for Chemical Genomics, 2007).
The entries are a selection whose mix differs from that of the whole data set. Some results for these compounds are left out of this collection, so the calls shown say nothing about other tests. Calls of active or inactive are those of the source.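 How the source made its calls: active means CYP2C19 inhibition above a set limit at 5 µM in the primary screen (cut at about 50% in these data); inactive means the rest.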

Protein sequences, listed by entry. Tags and fused reporters are not part of them.
UniProt P33261, whole entry: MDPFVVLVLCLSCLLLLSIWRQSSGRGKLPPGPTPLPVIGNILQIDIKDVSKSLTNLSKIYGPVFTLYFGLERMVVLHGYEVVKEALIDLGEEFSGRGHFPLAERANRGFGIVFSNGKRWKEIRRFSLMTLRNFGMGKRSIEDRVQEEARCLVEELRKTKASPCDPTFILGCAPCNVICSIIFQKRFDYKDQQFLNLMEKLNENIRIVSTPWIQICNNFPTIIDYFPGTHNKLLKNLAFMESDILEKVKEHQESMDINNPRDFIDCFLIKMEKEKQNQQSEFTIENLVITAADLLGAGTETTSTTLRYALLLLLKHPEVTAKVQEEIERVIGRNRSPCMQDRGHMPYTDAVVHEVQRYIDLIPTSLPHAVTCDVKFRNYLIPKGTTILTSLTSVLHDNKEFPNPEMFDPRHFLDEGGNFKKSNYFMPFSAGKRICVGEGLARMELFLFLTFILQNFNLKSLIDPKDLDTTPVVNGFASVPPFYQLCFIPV

Molecular target: Cytochrome P450 2C19 (Homo sapiens) (UniProt P33261)
Assay: blockers of cytochrome P450 2C19 activity – biochemical, luminescence, ADME assay, primary screen (AID 778);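 further: plate controls were negative control wells for no effect and 2.5 mM tranylcypromine positive control for full effect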
Conditions: CYP2C19 Supersomes, luciferin-H EGE luminescence, 30 min; at 5 µM; stronger effect = higher value

Structure (SMILES)	inhibition
CN(C)c1cccc(C(=O)NCC2(N(C)C)CCCCC2)c1	inactive: -2.6%
O=C(OC1CN2CCC1CC2)C(CO)(c1ccccc1)c1ccccc1 (stereo not drawn)	inactive: -7%
CC(C)N1C(=O)CC2(CCN(CCOC(=O)C(O)(c3ccccc3)c3ccccc3)CC2)C1=O	inactive: -7.7%
